The values below are quoted from earlier work in patent publication US20090304869A1, “Peptides Having an Ace Inhibiting Effect” (priority 2005, published 2009).

Sequences of proteins named here, by UniProt entry; tags and fusion partners are left off. Residues count along the entry.
UniProt P12821, 30-1306 limits assumed: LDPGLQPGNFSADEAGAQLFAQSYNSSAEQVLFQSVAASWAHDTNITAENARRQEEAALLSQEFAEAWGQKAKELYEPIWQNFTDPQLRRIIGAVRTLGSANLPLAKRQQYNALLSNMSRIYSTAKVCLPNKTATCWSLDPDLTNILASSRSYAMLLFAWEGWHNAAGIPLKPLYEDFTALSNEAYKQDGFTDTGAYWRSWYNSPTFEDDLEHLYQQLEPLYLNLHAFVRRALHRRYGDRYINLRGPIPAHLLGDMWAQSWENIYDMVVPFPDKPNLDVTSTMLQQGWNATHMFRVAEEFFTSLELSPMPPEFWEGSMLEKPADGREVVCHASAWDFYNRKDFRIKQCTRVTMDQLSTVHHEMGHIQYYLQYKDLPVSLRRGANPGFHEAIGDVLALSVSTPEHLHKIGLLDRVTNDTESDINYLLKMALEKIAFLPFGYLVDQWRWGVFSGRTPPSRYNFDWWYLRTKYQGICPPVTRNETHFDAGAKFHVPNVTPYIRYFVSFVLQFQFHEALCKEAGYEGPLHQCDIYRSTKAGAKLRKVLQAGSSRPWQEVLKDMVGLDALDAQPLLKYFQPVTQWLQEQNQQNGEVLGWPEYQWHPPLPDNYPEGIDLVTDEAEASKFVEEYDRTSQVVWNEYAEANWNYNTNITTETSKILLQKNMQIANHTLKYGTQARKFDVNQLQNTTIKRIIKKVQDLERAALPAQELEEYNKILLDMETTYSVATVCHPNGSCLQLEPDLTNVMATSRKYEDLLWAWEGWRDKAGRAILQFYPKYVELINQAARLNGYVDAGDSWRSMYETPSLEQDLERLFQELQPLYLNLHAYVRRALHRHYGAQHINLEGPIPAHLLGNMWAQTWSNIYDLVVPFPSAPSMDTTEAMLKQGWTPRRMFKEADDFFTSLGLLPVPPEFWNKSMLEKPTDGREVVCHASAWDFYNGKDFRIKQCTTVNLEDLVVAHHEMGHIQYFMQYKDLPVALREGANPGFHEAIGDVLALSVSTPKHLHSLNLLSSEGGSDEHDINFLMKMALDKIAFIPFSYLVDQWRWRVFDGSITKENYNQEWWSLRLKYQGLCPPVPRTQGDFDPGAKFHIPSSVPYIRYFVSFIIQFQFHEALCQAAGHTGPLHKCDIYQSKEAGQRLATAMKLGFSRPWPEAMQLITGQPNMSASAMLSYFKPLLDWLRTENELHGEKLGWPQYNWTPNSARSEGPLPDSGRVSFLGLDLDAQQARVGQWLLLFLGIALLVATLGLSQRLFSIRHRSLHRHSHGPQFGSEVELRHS

The series concerns the target ACE (Homo sapiens, UniProt P12821). The following applies: read-out: IC50 values reported earlier as ACEI peptides; literature.

On to `CC(C)C[C@H](N)C(=O)N1CCC[C@H]1C(=O)N1CCC[C@H]1C(=O)O`, for which the IC50 (as a rule, the concentration that inhibits the measured activity by half) is 9.6 µM.
